Values of other authors in patent US20050107306A1, “Treatment of respiratory disease associated with matrix metalloproteases by inhalation of synthetic matrix metalloprotease inhibitors” (priority 2003, published 2005).

Chains of the proteins cited; added tags and fusions are not shown. Residues count along the entry.
UniProt P14780, 94-707 limits assumed: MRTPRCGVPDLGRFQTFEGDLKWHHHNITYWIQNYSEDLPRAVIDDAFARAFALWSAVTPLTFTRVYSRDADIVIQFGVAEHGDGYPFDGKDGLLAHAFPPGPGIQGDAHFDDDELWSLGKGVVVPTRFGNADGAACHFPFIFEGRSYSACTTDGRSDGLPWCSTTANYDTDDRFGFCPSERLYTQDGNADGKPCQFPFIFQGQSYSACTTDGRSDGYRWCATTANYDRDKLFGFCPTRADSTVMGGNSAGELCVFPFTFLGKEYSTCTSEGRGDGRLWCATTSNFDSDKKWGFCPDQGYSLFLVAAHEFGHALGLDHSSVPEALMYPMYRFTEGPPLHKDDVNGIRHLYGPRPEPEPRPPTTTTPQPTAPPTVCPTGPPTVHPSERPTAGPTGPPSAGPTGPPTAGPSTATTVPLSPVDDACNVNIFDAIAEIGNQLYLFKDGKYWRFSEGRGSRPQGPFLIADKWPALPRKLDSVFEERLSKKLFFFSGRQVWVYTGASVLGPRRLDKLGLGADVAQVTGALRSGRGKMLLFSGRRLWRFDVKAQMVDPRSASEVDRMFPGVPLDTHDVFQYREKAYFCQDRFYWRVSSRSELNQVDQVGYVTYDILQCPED
UniProt P39900, 106-470 limits assumed: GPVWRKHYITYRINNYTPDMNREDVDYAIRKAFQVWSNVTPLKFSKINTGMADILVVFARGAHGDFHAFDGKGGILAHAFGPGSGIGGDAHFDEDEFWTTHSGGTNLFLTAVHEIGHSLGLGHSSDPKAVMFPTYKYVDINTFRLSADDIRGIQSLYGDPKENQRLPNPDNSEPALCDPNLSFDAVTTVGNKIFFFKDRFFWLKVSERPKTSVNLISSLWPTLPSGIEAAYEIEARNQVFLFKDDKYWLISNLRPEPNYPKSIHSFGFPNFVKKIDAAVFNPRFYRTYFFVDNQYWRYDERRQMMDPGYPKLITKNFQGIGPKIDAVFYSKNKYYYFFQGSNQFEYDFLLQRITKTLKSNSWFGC
UniProt P08254, 100-477 limits assumed: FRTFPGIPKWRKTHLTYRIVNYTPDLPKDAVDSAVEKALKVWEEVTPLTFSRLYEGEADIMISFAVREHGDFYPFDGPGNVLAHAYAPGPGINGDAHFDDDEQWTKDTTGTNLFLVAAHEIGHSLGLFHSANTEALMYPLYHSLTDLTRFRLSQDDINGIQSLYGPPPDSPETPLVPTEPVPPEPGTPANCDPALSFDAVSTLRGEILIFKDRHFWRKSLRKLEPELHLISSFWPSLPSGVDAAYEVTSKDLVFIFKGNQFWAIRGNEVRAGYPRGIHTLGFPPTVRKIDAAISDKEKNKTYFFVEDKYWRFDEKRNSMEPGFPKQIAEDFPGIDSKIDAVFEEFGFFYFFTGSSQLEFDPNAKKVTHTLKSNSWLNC
UniProt P03956, 100-469 limits assumed: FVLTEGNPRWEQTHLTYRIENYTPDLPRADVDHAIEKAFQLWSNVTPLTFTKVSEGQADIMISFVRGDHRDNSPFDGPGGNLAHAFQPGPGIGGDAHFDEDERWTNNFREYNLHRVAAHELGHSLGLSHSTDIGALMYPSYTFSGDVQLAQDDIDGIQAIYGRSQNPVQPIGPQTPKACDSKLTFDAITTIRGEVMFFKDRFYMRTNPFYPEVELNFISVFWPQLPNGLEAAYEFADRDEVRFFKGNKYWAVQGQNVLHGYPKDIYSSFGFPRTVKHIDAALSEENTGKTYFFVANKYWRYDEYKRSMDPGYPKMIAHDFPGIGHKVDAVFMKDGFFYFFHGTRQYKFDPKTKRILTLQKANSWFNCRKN

Assays:
[1] = biological target: MMP-9 (gelatinase B) (Homo sapiens, UniProt P14780); details: read-out: MMP-9 (gelatinase B) Kl; cited from earlier work
[2] = biological target: MMP-12 (macrophage metalloelastase, ME) (Homo sapiens, UniProt P39900); details: read-out: MMP-12 (macrophage metalloelastase, ME) Kl; cited from earlier work
[3] = biological target: Membrane-type MMP-1 (Homo sapiens, UniProt P50281); details: read-out: Membrane-type MMP-1 Kl (values in parentheses); cited from earlier work
[4] = biological target: MMP-3 (stromelysin) (Homo sapiens, UniProt P08254); details: read-out: MMP-3 (stromelysin) Kl; cited from earlier work
[5] = system: smoking-induced COPD; details: delivered orally, at oral doses several hundred-fold greater than pulmonary doses of the invention; cited from earlier work
[6] = biological target: MMP-1 (collagenase-1) (Homo sapiens, UniProt P03956); details: read-out: MMP-1 (collagenase-1) Kl; cited from earlier work

**Q.** Which Ki [1] does the source give for O=C(CC1(S(=O)(=O)c2ccc(Oc3ccc(Cl)cc3)cc2)CCOCC1)NO here?
**A.** 0.065 nM

**Q.** What about the Ki [2] of the same molecule?
**A.** 0.033 nM

**Q.** What about the Ki [3] of the same molecule?
**A.** 0.089 nM

**Q.** What about the Ki [4] of the same molecule?
**A.** 5.2 nM

**Q.** What about the “efficacy against smoking-induced COPD” value [5] of the same molecule?
**A.** effective

**Q.** What about the Ki [6] of the same molecule?
**A.** 70 nM
